The list shows a part of the results.

To fix the notation:
T1: LIN28A (human?, UniProt Q9H9Z2 1-209)
T1 sequence: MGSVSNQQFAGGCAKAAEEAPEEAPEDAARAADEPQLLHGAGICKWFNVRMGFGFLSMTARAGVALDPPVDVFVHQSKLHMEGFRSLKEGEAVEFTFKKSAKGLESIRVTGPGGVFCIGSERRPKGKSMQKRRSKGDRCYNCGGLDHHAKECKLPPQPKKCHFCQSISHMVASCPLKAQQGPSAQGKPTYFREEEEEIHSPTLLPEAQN

T2: CIRBP (Homo sapiens, UniProt Q14011 1-172)
T2 sequence: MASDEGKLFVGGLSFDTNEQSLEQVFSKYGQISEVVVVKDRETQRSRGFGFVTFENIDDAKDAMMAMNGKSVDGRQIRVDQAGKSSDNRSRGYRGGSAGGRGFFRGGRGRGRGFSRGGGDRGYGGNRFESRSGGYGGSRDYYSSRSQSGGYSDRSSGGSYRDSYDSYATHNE

T3: DHX36 (Homo sapiens, UniProt Q9H2U1 1-1008)
T3 sequence: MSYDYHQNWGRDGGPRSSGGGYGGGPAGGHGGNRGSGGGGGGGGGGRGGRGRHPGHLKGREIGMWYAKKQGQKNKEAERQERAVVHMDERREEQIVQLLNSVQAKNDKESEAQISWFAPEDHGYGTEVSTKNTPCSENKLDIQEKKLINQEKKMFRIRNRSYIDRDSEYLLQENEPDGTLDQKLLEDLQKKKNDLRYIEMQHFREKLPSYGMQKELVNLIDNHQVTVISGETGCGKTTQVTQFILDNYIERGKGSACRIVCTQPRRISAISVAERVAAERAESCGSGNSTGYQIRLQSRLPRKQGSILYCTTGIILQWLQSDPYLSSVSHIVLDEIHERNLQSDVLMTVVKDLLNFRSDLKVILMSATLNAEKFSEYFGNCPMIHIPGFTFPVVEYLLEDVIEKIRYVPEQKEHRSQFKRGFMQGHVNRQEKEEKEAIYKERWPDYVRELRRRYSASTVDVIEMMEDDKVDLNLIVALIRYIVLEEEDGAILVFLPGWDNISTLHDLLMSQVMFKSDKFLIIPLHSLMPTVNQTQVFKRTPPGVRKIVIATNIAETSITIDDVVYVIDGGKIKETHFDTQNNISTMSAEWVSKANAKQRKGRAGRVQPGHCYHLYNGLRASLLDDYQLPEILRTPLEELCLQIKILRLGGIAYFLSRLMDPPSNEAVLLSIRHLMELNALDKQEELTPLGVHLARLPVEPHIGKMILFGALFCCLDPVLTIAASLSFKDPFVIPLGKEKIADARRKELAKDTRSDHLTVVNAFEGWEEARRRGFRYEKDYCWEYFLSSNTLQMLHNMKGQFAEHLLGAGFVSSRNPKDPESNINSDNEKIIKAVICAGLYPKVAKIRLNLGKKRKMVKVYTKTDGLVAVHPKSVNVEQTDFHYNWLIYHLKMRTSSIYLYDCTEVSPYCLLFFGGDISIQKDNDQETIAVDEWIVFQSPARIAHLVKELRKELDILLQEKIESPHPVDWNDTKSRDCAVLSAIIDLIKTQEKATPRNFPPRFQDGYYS

B1: hsa-mir-137 (structured_RNA)
RNA: GGGAAUAGGUGGGCCUGACAACUUCCGAGGUGUACGAAGUUUCAGCAUAAUACGGAUUACGUUGUUAGCUGAAGCUUCGUGCAC
B2: hsa-mir-664a (structured_RNA)
RNA: GGGACAUCGAAACGCCGACACAAACACCGGUGUACGAAGUUUCAGCGGAUAGAAACUAUUAUUCUAUUCGCUGAAGCUUCGUGCAC
B3: hsa-mir-4304 (structured_RNA)
RNA: GGGAGCUACUUGCAACACUUCACCAGCCGGUGUACGAAGUUUCAGCGGCAUCCCCAUUGCUGCUGAAGCUUCGUGCAC
B4: hsa-mir-1913 (structured_RNA)
RNA: GGGAAUCGGCAUGUCGAGACACGUCAGUGGUGUACGAAGUUUCAGCCAGAGGCUGGCUUUCCAAAACUCUGGCUGAAGCUUCGUGCAC
B5: hsa-mir-3194 (structured_RNA)
RNA: GGGAUCGCUGCCUGUUUUAGUGUUGCCCGGUGUACGAAGUUUCAGCGGCUGCGUGCCACCCGGGCAGCUGCUGAAGCUUCGUGCAC
B6: hsa-mir-543 (structured_RNA)
RNA: GGGAACAAGUAGAGCCGGCCCUAUACGUGGUGUACGAAGUUUCAGCUUUUUUUCGCUUUAUUUGUGACGAAACGCUGAAGCUUCGUGCAC
B7: hsa-mir-663a (structured_RNA)
RNA: GGGAAGCUUUAUGGGGCUAUCAGGCCUCGGUGUACGAAGUUUCAGCCCGCCCUCGUGUCUGUGGCGGUGGGCUGAAGCUUCGUGCAC
B8: hsa-mir-323b (structured_RNA)
RNA: GGGAAACACAGGACGAACGUGCUAAAUCGGUGUACGAAGUUUCAGCUUCGCAUUAUUUAAUGAUGCCCAGCUGAAGCUUCGUGCAC
B9: hsa-mir-6719 (structured_RNA)
RNA: GGGAAACUAAGGCUGUCUCACUCUCAGGGGUGUACGAAGUUUCAGCCUUCAGAGCAGGGUUUGGUCUGUGCUUCUCUGGCUGAAGCUUCGUGCAC
B10: hsa-mir-548az (structured_RNA)
RNA: GGGAGAAGACGAUGGAUGAUAUCGAUCUGGUGUACGAAGUUUCAGCUUUUGCUGUUACUUUUAAUGGCAAAAGCUGAAGCUUCGUGCAC
B11: hsa-mir-4262 (structured_RNA)
RNA: GGGACACUGGAGGGCAACCUACUCCACUGGUGUACGAAGUUUCAGCUGUUGGGGGGACAGCUGAAGCUUCGUGCAC
B12: hsa-mir-320d-2 (structured_RNA)
RNA: GGGAAAUCUGUGCAGGCUCAACCCCUUGGGUGUACGAAGUUUCAGCUCUUCUUGGAGUCAGGAAAAGCUGAAGCUUCGUGCAC
B13: hsa-mir-451a (structured_RNA)
RNA: GGGAGCUGGUGACCCCGUGUACGUCUUAGGUGUACGAAGUUUCAGCUGAGUUUAGCUGAAGCUUCGUGCAC
B14: NEAT1_ParasoR_ID36 (structured_RNA)
RNA: GGGAAGACGCGGUAAUACCAUAGUCAGCGGUGUACGAAGUUUCAGCAAUGACAACUUCAUUGCUGAAGCUUCGUGCAC
B15: hsa-mir-6771 (structured_RNA)
RNA: GGGAAGAUAGCAGGUUCCCUCAUCGCCCGGUGUACGAAGUUUCAGCCCAGGCCACAUAAUGAGCCAAAGCUGAAGCUUCGUGCAC
B16: hsa-mir-4530 (structured_RNA)
RNA: GGGACAGAGUGCUUAUACUCUCAGGGCGGGUGUACGAAGUUUCAGCUGGGUCAAGGAGCCCAGCUGAAGCUUCGUGCAC
B17: hsa-mir-4420 (structured_RNA)
RNA: GGGACCGGACGGUAUUUACACUGCAUCCGGUGUACGAAGUUUCAGCUGUUCAUGUCUCUCUGUGCACAGGGGACGAGAGUCAGCUGAAGCUUCGUGCAC
B18: hsa-mir-4456 (structured_RNA)
RNA: GGGAAAGCCGGUCACGACGUUCAUAAUAGGUGUACGAAGUUUCAGCUUUUCUGGGAGCUGAAGCUUCGUGCAC
B19: hsa-mir-1182 (structured_RNA)
RNA: GGGACGACAUAGGACGCAUCCUUCACCGGGUGUACGAAGUUUCAGCAUUCUGGAGUCCAUCUAGAGGCUGAAGCUUCGUGCAC
B20: hsa-mir-508 (structured_RNA)
RNA: GGGAAGGUGCGUUCGACCCAUCACCUAAGGUGUACGAAGUUUCAGCCUCAUGUAAACUAAAACAUGAUGCUGAAGCUUCGUGCAC
B21: hsa-mir-558 (structured_RNA)
RNA: GGGAGGCCGUUCAAGUCUCUACCUGCAUGGUGUACGAAGUUUCAGCCUCUAGACUCUAUUAUAGUUUCCUGAGGCUGAAGCUUCGUGCAC
B22: hsa-mir-1183 (structured_RNA)
RNA: GGGAGAACACAAUGCAAUUAGGGCGCAUGGUGUACGAAGUUUCAGCAGGAGUUCACUGCUGAAGCUUCGUGCAC
B23: hsa-mir-3713 (structured_RNA)
RNA: GGGAGAACUGUCUCCACGCUCACUAAGCGGUGUACGAAGUUUCAGCUGGUUUCACUAGCUGAAGCUUCGUGCAC
B24: hsa-mir-4666b (structured_RNA)
RNA: GGGAGAUCGGGCCUAAUGAAGUAGUAUUGGUGUACGAAGUUUCAGCUCCCAGGCCCUUCCUCCAAUACUGGGAGCUGAAGCUUCGUGCAC
B25: hsa-mir-7641-2 (structured_RNA)
RNA: GGGACGAACGUGAGGACUGCCACUAACUGGUGUACGAAGUUUCAGCAAGCAGGGUCGGGCCUGGUUGCUGAAGCUUCGUGCAC
B26: NEAT1_ParasoR_ID25 (structured_RNA)
RNA: GGGACUGCAGAGCAACCUAUACCAAUGGGGUGUACGAAGUUUCAGCCAGCUCCAUCCAAAAUUGCUGGCUGAAGCUUCGUGCAC

The first experiment concerns the target T1, LIN28A. Put plainly: FOREST: bead pull-down of RNA structure library v1, barcode microarray; U1A/LIN28A: 20 mM HEPES pH 7.5, 80 mM KCl, 20 mM NaCl, 10% glycerol, 2 mM DTT, 0.1 ug/uL BSA, 4 C; BG4/CIRBP/DHX36: 10 mM Tris-HCl pH 7.5, 100 mM KCl (or LiCl),; high values mean tight binding.
B1 yielded a binding signal of -1.94 z-score.

Consider B2, for which the binding signal is -2.18 z-score.

In turn, B3 displayed a binding signal of -1.96 z-score.

In turn, B4 displayed a binding signal of -2.21 z-score.

Regarding B5, the binding signal is -1.96 z-score.

Molecule B6 had a binding signal of -2.28 z-score.

Take B7: the binding signal is -1.99 z-score.

In turn, B8 displayed a binding signal of -2.15 z-score.

B9 showed a binding signal of -2.29 z-score.

In the case of B10, the binding signal is -2.31 z-score.

For the molecule B11, the binding signal is -1.93 z-score.

B12 registered a binding signal of -1.89 z-score.

Turning to B13, the binding signal is -1.96 z-score.

In the case of B14, the binding signal was -1.94 z-score.

Take B15: the binding signal was -1.94 z-score.

B16 came in with a binding signal of -2.12 z-score.

Regarding B17, the binding signal is -2.05 z-score.

Regarding B18, the binding signal is -1.99 z-score.

As for B19, the binding signal was -1.92 z-score.

Molecule B20 came in with a binding signal of -1.96 z-score.

Molecule B21 registered a binding signal of -2.01 z-score.

For the molecule B22, the binding signal is -2.12 z-score.

As for B23, the binding signal is -1.99 z-score.

B24 registered a binding signal of -2.03 z-score.

Turning to B25, the binding signal is -2.03 z-score.

On to B26, for which the binding signal is -2.01 z-score.

A further experiment addresses T2, CIRBP. The experiment is described as above.
B1 registered a binding signal of -0.838 z-score.

In turn, B2 registered a binding signal of -1.13 z-score.

Molecule B3 had a binding signal of -0.891 z-score.

Turning to B4, the binding signal was -0.65 z-score.

On to B5, for which the binding signal is -0.853 z-score.

B6 returned a binding signal of -0.589 z-score.

B7 displayed a binding signal of -0.753 z-score.

B8 displayed a binding signal of 0.205 z-score.

In turn, B9 had a binding signal of -0.952 z-score.

For B10, the binding signal is -0.229 z-score.

Regarding B11, the binding signal is -0.314 z-score.

As to B12, the binding signal turned out to be 0.543 z-score.

B13 registered a binding signal of -0.294 z-score.

Turning to B14, the binding signal was -0.737 z-score.

Molecule B15 came in with a binding signal of -0.477 z-score.

Regarding B16, the binding signal was -0.375 z-score.

In turn, B17 registered a binding signal of -1.82 z-score.

The molecule B18 displayed a binding signal of -0.696 z-score.

Take B19: the binding signal is -0.941 z-score.

In turn, B20 displayed a binding signal of -0.705 z-score.

B21 displayed a binding signal of -1.56 z-score.

With B22, the binding signal is -0.681 z-score.

As to B23, the binding signal is -0.194 z-score.

Molecule B24 gave a binding signal of -0.721 z-score.

Molecule B25 returned a binding signal of -1.49 z-score.

Turning to B26, the binding signal is -1.08 z-score.

A further experiment concerns the target T3, DHX36. Described as above.
Molecule B1 registered a binding signal of -1.15 z-score.

As for B2, the binding signal was -1.89 z-score.

B3 came in with a binding signal of -0.453 z-score.

B4 gave a binding signal of -2.17 z-score.

In the case of B5, the binding signal was -0.412 z-score.

Turning to B6, the binding signal was -0.727 z-score.

Turning to B7, the binding signal is -0.396 z-score.

B8 yielded a binding signal of -2.05 z-score.

B9: the binding signal was -1.49 z-score.

On to B10, for which the binding signal was -0.357 z-score.

Consider B11, for which the binding signal is 0.764 z-score.

Consider B12, for which the binding signal stood at 0.02 z-score.

On to B13, for which the binding signal was -1.5 z-score.

The molecule B14 came in with a binding signal of -1.45 z-score.

Regarding B15, the binding signal is -0.00733 z-score.

In the case of B16, the binding signal was -0.702 z-score.

Take B17: the binding signal was -1.21 z-score.

As to B18, the binding signal is -1.43 z-score.

For the molecule B19, the binding signal was -1.28 z-score.

For B20, the binding signal is -1.31 z-score.

B21 returned a binding signal of -1.59 z-score.

Regarding B22, the binding signal was -0.622 z-score.

Regarding B23, the binding signal is -1.21 z-score.

Molecule B24 yielded a binding signal of -0.321 z-score.

Molecule B25 had a binding signal of -0.652 z-score.

For B26, the binding signal is -0.155 z-score.

The values are drawn from paper PMC7723054.
